The values that follow are results of earlier work, collected in patent US4971962A, “Cephalosporin compounds” (Lucky, Ltd., priority 1988, dated 1990).

SMILES strings stand for the structures.

For the series the following is noted: dog (Beagle), i.v. 20 mg/kg, II Compartment; cited from earlier work.

In the case of `CC(C)(O/N=C(\C(=O)N[C@@H]1C(=O)N2C(C(=O)[O-])=C(C[n+]3ccccc3)CS[C@H]12)c1csc(N)n1)C(=O)O` [Ceftazidime, reference compound], the “T1/2 (α)” value was 7.27 min and the “T1/2 (β)” value was 49.0 min.
